Source: PubChem (National Center for Advancing Translational Sciences (NCATS))
The list is not random: actives were taken first. Their share in the collection is about 13%.
ALDH1A1 inh = blocks purified human ALDH1A1 activity | P00352 | Purified ALDH1A1, NADH fluorescence, propionaldehyde substrate | Potency, µM (titrated, usually from 75.3 µM), inactives show at the highest dose activity, negative = inhibition, most hits filed as inhibitors | 220,000 compounds, 7.3% hits | AID 1030; active = well fitted inhibition curve with a large enough effect, not every such curve was filed as active; inconclusive = small, poorly fitted or top-dose-only effect, or another doubt; inactive = no such curve, though single readings can be large or run the other way;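 note: potency is the fitted concentration of half-maximal effect; plate controls were no enzyme wells and a reference inhibitor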
KDM4E inh = JMJD2E (human) inhibition. JMJD2E catalytic domain, FDH-coupled NADH fluorescence (FDH is formaldehyde dehydrogenase). 230,000 compounds, 1.6% hits. Potency, µM (titrated, usually from 57.1 µM), without a hit: at the top dose activity change, negative = inhibition, usual class: inhibitors; active = well fitted inhibition curve with a large enough effect, not every such curve was filed as active; inconclusive = small, poorly fitted or top-dose-only effect, or another doubt; inactive = no such curve, though single readings can be large or run the other way;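 note: potency is the fitted concentration of half-maximal effect; 0% = wells with enzyme and -100% = buffer wells without enzyme; nearly all actives have a fitted effect of over 50% in size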
G9a inh = blocks human histone lysine methyltransferase G9a; AID 504332; Q96KQ7; G9a H3K9 monomethylation, AlphaScreen, 2 h; Potency, µM (doses to about 102 µM), for inactives: at the highest dose activity, negative = inhibition, usual class: inhibitors; 350,000 compounds, 8.8% hits; note: potency is the fitted concentration of half-maximal effect; % is set by controls: 0 for no effect and ±100 for the full control effect; nearly all actives have a fitted effect of over 75% in size
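G9a (20 nM) preincubated 15 min RT with compounds, then 500 nM biotinylated H3K9 peptide and 20 uM SAM added; 2 h RT reaction. Monomethyl-H3K9 product detected by AlphaScreen with anti-H3K9me1 antibody, streptavidin donor and anti-rabbit IgG acceptor beads.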
miR-21 reporter = raises the signal of a miR-21 reporter; Potency, µM (doses to about 38.3 µM), inactives show top-dose reporter change, positive = more light; HeLa miR-21 FLuc reporter, luciferase, 48 h; AID 2288; 340,000 tested, under 10 active; active = well fitted rising curve with a large enough effect; inconclusive = small, poorly fitted or top-dose-only effect; inactive = no such curve, though single readings can be large or run the other way;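 further: % of control where 0% means no effect; miR-21 action dims this reporter so a rising signal means less miR-21 action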
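Luminescence from a firefly luciferase reporter carrying a miR-21 binding site downstream, stably expressed under a CMV promoter in HeLa cells that make miR-21 endogenously, reports miRNA modulation after 48 h compound exposure up to approximately 40uM final.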
Sfp inh = Sfp phosphopantetheinyl transferase inhibition; Q9F4F7; Biochemical Sfp PPTase activity, qHTS; Potency, µM, for the others: max response, negative = inhibition, most hits filed as inhibitors; 310,000 tested, 3.5% active; AID 1490; active = well fitted inhibition curve with a large enough effect; inconclusive = small, poorly fitted or top-dose-only effect, or another doubt; inactive = no such curve, though single readings can be large or run the other way;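 also: the enzyme is Sfp with the accession as filed and its product quenches rhodamine fluorescence; potency is read from the fitted curve at half-maximal effect; 0% = enzyme reaction without inhibitor and -100% = no enzyme wells; top concentration of the series not given in the record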
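Reaction rates are the 30-min fluorescence difference (ex 525, em 598 nm) in wells containing 15 nM Sfp, 5 uM rhodamine-CoA and 12.5 uM BHQ-2-YbbR at pH 7.6 with 10 mM MgCl2.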
Lamin A splicing = LMNA splicing modulation; Potency, µM (highest dose often 46.1 µM), for the others: at the highest dose ratio change, negative = inhibition, actives largely listed as inhibitors; HeLa LMNA splicing GFP/RFP minigene ratio, 48 h; 200,000 compounds, 0.01% hits; active = well fitted inhibition curve with a large enough effect in the signal ratio, with a control signal flat, not every such curve was filed as active; inconclusive = small, poorly fitted or top-dose-only effect, or effect the other way, or a change in a side signal; the % refers to the signal ratio; note: potency is the fitted concentration of half-maximal effect; % is set by controls: 0 for no effect and ±100 for the full control effect
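Read-out is the ratio of GFP to DsRed2 object intensity, acquired by 488 nm laser-scanning cytometry on HeLa lamin A-EGFP minigene reporter cells. Compound incubation 48 hrs at 37 °C in Opti-MEM with 2% FBS; DMSO 0.5% final.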
* = called active by the depositor; ? = inconclusive; · = no result given; [ ] = remark or other dose. Unless noted, calls come from the whole dose curve; as a rule, active = well fitted curve in the direction sought with a large enough effect; inconclusive = small, poorly fitted or top-dose-only effect, or another doubt; inactive = no such curve, though single readings can be large; an effect the other way counts as inactive or inconclusive.

SMILES	ALDH1A1 inh	KDM4E inh	G9a inh	miR-21 reporter	Sfp inh	Lamin A splicing
COc1ccc(OC)c(CNc2ccc3c(c2)nc(C)n3C)c1	·	·	35µM*	-17%	-3%	·
O=C(CN1CCN(Cc2ccccc2)CC1)c1ccccc1	?	7%	79µM*	-6%	13%	0%
CC(C)(C)NCC(=O)c1c[nH]c2ccccc12	18µM*	1%	?	-1%	-1%	-15%
CCN1CCN(C(=O)c2ccccc2NC(=O)c2ccc(Cl)cc2)CC1	·	·	45µM*	-2%	14%	·
O=C(CN1CCN(Cc2ccccc2)CC1)Nc1ccccc1	·	·	·	-1%	20%	·
O=C(C(Cl)Cl)N1CCN(Cc2ccccc2)CC1	1.8µM*	-2%	-6%	2%	0%	-14%
CC(C)Oc1ccc(CNC(=O)c2cnc3sc(N4CCCCC4)nn3c2=O)cc1	·	·	12%[59 µM]	-3%	·	·
O=C(CN1CCN(Cc2ccccc2)CC1)c1c[nH]c2ccccc12	25µM*	-9%	40µM*	-13%	1%	-4%
N=c1n(CC(=O)c2ccc(Br)cc2)c2ccccc2n1Cc1ccccc1	·	·	10%[0.501 µM]	·	·	·
O=C(CN1CCN(Cc2ccccc2)CC1)c1ccc(Br)cc1	2.5µM*	2%	-44%[0.501 µM]	-2%	1%	18%
CCCn1c(N2CCN(CC(=O)c3c[nH]c4ccccc34)CC2)nc2c1c(=O)[nH]c(=O)n2C	13µM*	-5%	?	-18%	-27%	-9%
O=C(CN1CCN(Cc2ccccc2)CC1)NNC(=O)c1ccc(Cl)cc1	·	·	50µM*	·	·	·
O=C(CN1CCCCC1)c1c[nH]c2ccccc12	·	·	·	-1%	11%	·
Cc1ccc(C)[n+](CC(=O)c2ccc(-c3ccccc3)cc2)c1	-9%	?	·	11%	-9%	-8%[46 µM]
COc1cc(NC(=O)c2ccccc2)c(C)cc1NC(=O)CC(CC(=O)O)c1ccccc1 (stereo not drawn)	·	·	8%	-29%	14%	·

Single records (already shown). Order of screens: ALDH1A1 inh, KDM4E inh, G9a inh, miR-21 reporter, Sfp inh, Lamin A splicing
O=C(CN1CCCCC1)c1c[nH]c2ccccc12 in the list: ·, ·, ·, -1%, 11%, ·
CC(C)(C)NCC(=O)c1c[nH]c2ccccc12 in the list: 18µM*, 1%, ?, -1%, -1%, -15%
O=C(CN1CCN(Cc2ccccc2)CC1)NNC(=O)c1ccc(Cl)cc1 in the list: ·, ·, 50µM*, ·, ·, ·

Fetched by compound from the list above, two records:
SMILES	ALDH1A1 inh	KDM4E inh	G9a inh	miR-21 reporter	Sfp inh	Lamin A splicing
N=c1n(CC(=O)c2ccc(Br)cc2)c2ccccc2n1Cc1ccccc1	·	·	10%[0.501 µM]	·	·	·
CCN1CCN(C(=O)c2ccccc2NC(=O)c2ccc(Cl)cc2)CC1	·	·	45µM*	-2%	14%	·

Remaining list, next part
SMILES	ALDH1A1 inh	KDM4E inh	G9a inh	miR-21 reporter	Sfp inh	Lamin A splicing
CC(=O)Nc1cccc(C(=O)OCC(=O)N2CCC(c3ccccc3)=N2)c1	·	·	10%	·	·	·
O=C(NCc1ccccc1F)c1sc2ncccc2c1-n1cccc1	·	·	-39%[59 µM]	1%	·	11%[46 µM]
Cc1cc(N/N=C/c2ccccc2O)c2ccccc2n1	·	·	·	4%	-13%	·
Oc1ccc(/C=N/Nc2ncc(Br)cn2)c(O)c1	-3%	11µM*	49%[59 µM]	-31%	7%	?
Cc1cc(-c2ccccc2)nc(N/N=C/c2ccc(O)cc2O)n1	·	·	-2%	4%	-1%	·
Cc1ccc(/C=N/Nc2cccc3cccnc23)c(O)c1	5%	-7%	18µM*	-43%	45µM*	?
Oc1ccc(/C=N/Nc2cccc3cccnc23)c(O)c1	?	-23%	5.6µM*	-43%	?	?
COc1ccc(CNC(=O)Cn2nc([N+](=O)[O-])c(Br)c2C)cc1OC	·	·	16%	-13%	10%	·
Cc1ccc(-n2c(CCc3ccccc3)n[nH]c2=S)cc1C	·	·	2µM*	-8%	13%	·
Cc1cccc(C)c1OCc1n[nH]c(=S)n1-c1ccccc1	-8%	-28%	2.5µM*	-5%	-21%	6%[46 µM]
Cc1ccc(OCc2n[nH]c(=S)n2-c2ccccc2)cc1C	-8%	-11%	·	2%	-1%	4%[46 µM]
Cc1ccccc1OCc1n[nH]c(=S)n1Cc1ccccc1	-13%	6%	8.9µM*	-3%	15%	?
Cc1ccc(-n2c(COc3ccccc3)n[nH]c2=S)cc1	?	-28%	7.9µM*	2%	3%	11%[46 µM]
COc1ccc(-n2c(COc3ccc(C)cc3)n[nH]c2=S)cc1	·	·	·	3%	-10%	·
O/N=C/c1cccnc1Sc1ccccc1	-1%	-11%	7%	-7%	26%	-6%[9.22 µM]
FC(F)(F)c1ccccc1-c1ccc2ncnc(NCc3cccs3)c2c1	?	·	-8%[0.501 µM]	·	11%	?
Cc1ccc(C)c(NC(=O)CCC(=O)N2CCOc3ccccc32)c1	·	·	-3%	1%	1%	·
Cc1ccc(C)c(CNC(=O)c2ccc3c(c2)nc2n3CCC(C)C2)c1 (stereo not drawn)	·	·	-12%[59 µM]	-23%	·	?
CCc1ccc(NC(=O)CN(Cc2ccccc2)S(=O)(=O)c2ccc3nc(C)sc3c2)cc1	·	·	12%[59 µM]	5%	·	-2%[46 µM]
Cc1ccccc1OCc1n[nH]c(=S)n1-c1cccc(Cl)c1	·	·	11µM*	-4%	7%	·
Cc1ccccc1OCc1nnc(SCC(=O)O)n1-c1cccc(Cl)c1	·	·	9%	-2%	14%	·
Cc1cccc(C)c1NCc1n[nH]c(=S)n1-c1ccccc1	9%	2%	11µM*	-3%	79µM*	·
COCc1n[nH]c(=S)n1-c1ccccc1	1%	1%	40µM*	-2%	-20%	13%
Cc1ccc(C)c(NCc2n[nH]c(=S)n2-c2ccccc2)c1	9%	13%	·	0%	22%	12%[46 µM]
Cc1n[nH]c(=S)n1-c1cccc(Cl)c1	-8%	-7%	4µM*	-2%	?	-1%
COC(Cc1n[nH]c(=S)n1-c1ccccc1)OC	4%	8%	-15%[59 µM]	-3%	1%	-1%
COCC(=O)N1CCC2(CC1)CN(c1ccccn1)C2	?	·	44%[12.7 µM]	·	-7%	·
CC(C)Cn1c(CN2CCN(c3cccc(Cl)c3)CC2)nc2c1c(=O)[nH]c(=O)n2C	·	·	-32%[59 µM]	8%	·	·
CN(C)/C=C/C(=O)c1ccc([N+](=O)[O-])c(CS(=O)(=O)c2ccc(Cl)cc2)c1	·	·	4%	1%	2%	·
COc1ccc(CSCCc2n[nH]c(=S)n2-c2ccccc2)cc1	-3%	4%	?	-7%	-29%	·
Cn1c(SCc2ccccc2)nnc1-c1ccncc1	9%	-4%	?	-11%	8%	1%
Cn1c(SCc2n[nH]c(=S)n2-c2ccccc2)nnc1-c1ccccc1	10%	-3%	8.9µM*	0%	-11%	4%
CC(C)Oc1ccc(CCc2n[nH]c(=S)n2-c2ccccc2)cc1	-6%	5%	2.5µM*	1%	3%	·
S=c1[nH]nc(CSCc2ccccc2Cl)n1-c1ccccc1	4.5µM*	-5%	·	-20%	-7%	14%
Cc1ccccc1OCCCn1c(-c2ccc(Cl)cc2)nc2ccccc2c1=O	·	·	-33%[59 µM]	-2%	·	·
CCOC(=O)c1ccccc1NC(=O)CSc1nc2[nH]ncc2c(=O)[nH]1	·	·	3%[59 µM]	·	·	·
NNC(=O)c1sccc1OCc1ccc(Cl)cc1Cl	3.5µM*	5%	-25%	-11%	4%	4%[46 µM]
NNC(=O)c1sccc1OCc1ccc(F)cc1	10µM*	7%	-3%	-15%	6%	11%[46 µM]
O=C(N/N=C/c1ccc(F)cc1)c1sccc1OCc1ccc(F)cc1	-2%	4%	?	10%	-30%	?
COc1ccc(OC)c(C(=O)CN2C(=O)N(c3cc(C)cc(C)c3)S(=O)(=O)c3ccccc32)c1	·	·	-1%[59 µM]	-6%	·	-1%[46 µM]
